Data as given in PubChem BioAssay AID1379 (National Center for Advancing Translational Sciences (NCATS), 2008).
The entries are a selection whose mix differs from that of the whole data set. The source made the active and inactive calls. Calls follow the shape of the dose curve; as a rule, active = well fitted inhibition curve with a large enough effect; inconclusive = small, poorly fitted or top-dose-only effect; inactive = flat fitted curve, though single readings scatter.
% is scaled to controls: 0 for no effect and ±100 for the full control effect.
Also: nearly all actives have a fitted effect of over 60% in size.

The compounds below were run against Luciferin 4-monooxygenase (Photuris pensylvanica) (UniProt Q27757) (assay: Counterscreen for Luciferase (Kinase-Glo TM) Inhibition). Conditions: ATP luminescence, 8 min; at 38.3 µM (top of the series) unless noted.
Protocol: NCGC Assay Overview: NIH Molecular Libraries Screening Centers Network [MLSCN] NIH Chemical Genomics Center [NCGC] MLSCN Grant: None Luciferase (Kinase-Glo, Promega Corporation) was assayed for its ability to generate light using ATP and luciferin as substrates. The ATP concentration in the assay (10 uM) was within the linear range of enzyme activity for the assay conditions used.
NCGC Assay Protocol Summary: Four uL of substrate mix (final concentration, 50 mM imidazole pH 7.2, 50 mM KCl, 7 mM MgCl2, 10 uM ATP, 0.01% Tween 20, 0.05% BSA) was dispensed into white 1536 well plates. Twenty-three nL of compound was delivered by a pin tool and 2 uL of luciferase detection mix (Kinase-Glo, Promega)) was added. Following 8-minute incubation at ambient temperature, luminescence was measured by a ViewLux (Perkin Elmer) at 5 seconds exposure/plate.
In the case of `CCOC(=O)N1CCC(Nc2ccc(OC)cc2)CC1`, the activity change, negative = inhibition is reported as inactive: -4%.
In the case of `O=C(OC1CN2CCC1CC2)C1c2ccccc2Oc2ccccc21` (stereo not drawn), the activity change, negative = inhibition is reported as inactive: -1.02%.
`O=C(NCC1(N2CCOCC2)CCCCC1)c1cc2ccccc2o1` was tested, and the activity change, negative = inhibition was inactive: 2.04%.
In the case of `COc1ccc(C(=O)NCC2(N3CCCCC3)CCCCC2)c(OC)c1OC`, the activity change, negative = inhibition is reported as inactive: -0.215%.
In the case of `COc1ccc(NC2CCN(CCc3ccccc3)CC2)c(OC)c1`, the activity change, negative = inhibition is reported as inactive: 0.0195%.
In the case of `CN1CCN(CCOC(=O)C(O)(c2ccccc2)c2ccccc2)CC1`, the activity change, negative = inhibition is reported as inactive: -2.53%.
For `COc1ccc(NC2CCN(C(=O)OC(C)(C)C)CC2)cc1`, the activity change, negative = inhibition was inactive: 1.55%.
`O=C(NCC1(N2CCOCC2)CCCCC1)c1cc(=O)[nH]c2ccccc12` was tested, and the activity change, negative = inhibition was inactive: 1.46%.
`O=[N+]([O-])c1cc([N+](=O)[O-])c(NCC2CCS(=O)(=O)C2)c([N+](=O)[O-])c1` (stereo not drawn) was tested, and the activity change, negative = inhibition was inactive: 2.65%.
For `O=C(NCC1(N2CCCCC2)CCCCC1)c1cccc([N+](=O)[O-])c1`, the activity change, negative = inhibition was inactive: 0.0373%.
In the case of `N#CC1(Nc2ccccc2)CCN(CCc2ccccc2)CC1`, the activity change, negative = inhibition is reported as inactive: 0.564%.
In the case of `NC1CCCCC1.NP(=O)(O)N(CCCl)CCCl`, the activity change, negative = inhibition is reported as inactive: -7.24% [at 7.66 µM].
With `COc1ccc(CN(CCCl)CCCl)cc1Cl` the activity change, negative = inhibition was inactive: -0.0925%.
With `CN(C)c1cccc(C(=O)NCC2(N3CCCCC3)CCCCC2)c1` the activity change, negative = inhibition was inactive: -0.574%.
`CC(C)c1ccc(NC2CCN(C(=O)OC(C)(C)C)CC2)cc1` was tested, and the activity change, negative = inhibition was inactive: -0.482%.
For `O=C(OC1CN2CCC1CC2)C1c2ccccc2C=Cc2ccccc21` (stereo not drawn), the activity change, negative = inhibition was inactive: -3.12%.
In the case of `N/C(=N\O)c1c(N)no[n+]1[O-]`, the activity change, negative = inhibition is reported as inactive: -2.02%.
With `COc1ccc(C(=O)NCC2(N3CCOCC3)CCCCC2)cc1OC` the activity change, negative = inhibition was inactive: 2.34%.
For `c1ccc(CN2CCC(Nc3ccccc3)CC2)cc1`, the activity change, negative = inhibition was inactive: 22.8%.
For `N#Cc1ccc(C(=O)NCC2(N3CCCCC3)CCCCC2)cc1`, the activity change, negative = inhibition was inactive: -0.392%.
For `CN(C)c1ccc(C(=O)NCC2(N3CCCCC3)CCCCC2)cc1`, the activity change, negative = inhibition was inactive: 1.17%.
In the case of `CCN1CCC(Nc2cccc(F)c2)CC1`, the activity change, negative = inhibition is reported as inactive: 0.82%.
For `Fc1ccccc1NC1CCN(Cc2ccccc2)CC1`, the activity change, negative = inhibition was inactive: 15.8%.
In the case of `CCC(CO)(C(=O)OC1CN2CCC1CC2)c1ccccc1` (stereo not drawn), the activity change, negative = inhibition is reported as inactive: 0.183%.
`COc1cc(OC)cc(C(=O)NCC2(N3CCOCC3)CCCCC2)c1` was tested, and the activity change, negative = inhibition was inactive: -0.557%.
`CC(C)(C)OC(=O)N1CCC(Nc2ccccc2)CC1` was tested, and the activity change, negative = inhibition was inactive: -0.492%.
With `O=C(O)C1(Nc2ccccc2)CCN(Cc2ccccc2)CC1` the activity change, negative = inhibition was inactive: -0.372% [at 7.66 µM].
For `CCOc1ncccc1C(=O)NCC1(N2CCOCC2)CCCCC1`, the activity change, negative = inhibition was inactive: -6.16%.
